Measurements taken from publication PMC3124771 (Journal of immunology (Baltimore, Md. : 1950), 2011).

Test system: HPV specific T-cell lines
Experiment: IFN-γ cytokine capture assay after IL-2 pretreatment
Type: cell-based, human
Conditions: IL-2 40 U/ml overnight, average

IL-2: exogenous IL-2 (40 U/ml) added to HPV specific T cell lines
Fold increase in IFN-γ secretion after pretreatment with exogenous IL-2 (HPV specific T cell lines from RRP patients (4 cell lines)): 2 fold
Fold increase in IFN-γ secretion after pretreatment with exogenous IL-2 (HPV specific T cell lines from healthy subjects (4 cell lines)): 1 fold
